This data set concerns CYP3A. Conditions: observed, healthy adults, geometric least squares mean (90% CI).

SMILES strings stand for the structures.

Take `Cc1ncc2n1-c1ccc(Cl)cc1C(c1ccccc1F)=NC2` [midazolam]: the “midazolam AUCinf ratio with/without risdiplam” value is recorded as 1.08 (0.93–1.26) and the “midazolam Cmax ratio with/without risdiplam” value is recorded as 1.16 (1.06–1.28).

The values are drawn from paper PMC9291816 (Clinical Pharmacology and Therapeutics, 2021).
